This note sets out measurements from patent publication US6936585B2, “Corticotropin releasing factor 2 receptor agonists” (priority 2002, dated 2005).

One experiment has as its target T1, CRF1R (Homo sapiens, UniProt P34998).
T1 sequence (P34998 24-415): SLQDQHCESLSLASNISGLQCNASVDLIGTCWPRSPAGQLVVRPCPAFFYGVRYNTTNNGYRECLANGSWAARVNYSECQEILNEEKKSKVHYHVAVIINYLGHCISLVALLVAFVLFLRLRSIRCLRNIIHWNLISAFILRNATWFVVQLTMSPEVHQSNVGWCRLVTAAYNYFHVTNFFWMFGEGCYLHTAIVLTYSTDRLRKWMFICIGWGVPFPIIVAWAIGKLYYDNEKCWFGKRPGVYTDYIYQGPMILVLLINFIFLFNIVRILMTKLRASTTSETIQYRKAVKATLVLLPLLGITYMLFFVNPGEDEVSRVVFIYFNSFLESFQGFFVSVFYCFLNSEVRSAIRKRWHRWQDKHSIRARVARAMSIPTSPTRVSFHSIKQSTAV
The experiment in a line: CRF1R agonist activation (EC50 / Emax), called comparative CRF binding. As to conditions: for Emax: read-out: CRF1R Emax. The experiment is classed as cell-based. An outline of the steps:
(§1)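 CRFR-expressing cells + peptide vs vehicle; read-out cAMP (lysate assay) or CRE-linked reporter expression (luciferase, CAT, fluorescent protein, alkaline phosphatase, etc.). Signal compared against vehicle-treated cells.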

The target of another experiment is T2, CRF2R (Homo sapiens, UniProt Q13324).
T2 sequence (Q13324 1-411): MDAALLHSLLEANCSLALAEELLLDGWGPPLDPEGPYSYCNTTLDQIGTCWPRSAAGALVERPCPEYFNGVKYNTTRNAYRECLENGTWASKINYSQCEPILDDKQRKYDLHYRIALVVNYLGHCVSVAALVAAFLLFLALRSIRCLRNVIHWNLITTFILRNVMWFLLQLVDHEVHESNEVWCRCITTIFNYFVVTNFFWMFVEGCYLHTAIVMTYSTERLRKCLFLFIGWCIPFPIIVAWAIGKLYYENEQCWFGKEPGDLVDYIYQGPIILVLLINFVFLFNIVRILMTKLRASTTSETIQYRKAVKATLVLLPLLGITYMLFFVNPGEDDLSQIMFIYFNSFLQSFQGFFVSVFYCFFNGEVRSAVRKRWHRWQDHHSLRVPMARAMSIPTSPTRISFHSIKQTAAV
In words: CRF2R agonist activation (EC50 / Emax), called comparative CRF binding. It counts as cell-based. The settings on record: for Emax: read-out: CRF2R Emax. The procedure, abridged: as §1

As a reminder, the EC50 is the midpoint of the concentration-response curve. Low readings indicate higher potency in that assay, high ones lower potency in that assay. As a reminder, the Emax is the maximal effect, on the per cent scale that the assay sets. Consider `CC[C@H](C)[C@H](NC(=O)[C@H](CCCNC(=N)N)NC(=O)[C@H](C)NC(=O)[C@H](CC(N)=O)NC(=O)[C@@H](NC(=O)[C@@H](NC(=O)[C@H](C)NC(=O)[C@H](CCC(N)=O)NC(=O)[C@H](CCC(N)=O)NC(=O)[C@H](CCCCN)NC(=O)[C@H](CCC(=O)O)NC(=O)[C@H](CCCCN)NC(=O)[C@H](CCC(=O)O)NC(=O)[C@H](CCC(N)=O)NC(=O)[C@H](CCCCN)NC(=O)[C@H](CCC(=O)O)NC(=O)[C@@H](NC(=O)[C@H](CCC(=O)O)NC(=O)[C@@H](NC(=O)[C@H](CCSC)NC(=O)[C@H](CCCCN)NC(=O)[C@H](CCCNC(=N)N)NC(=O)[C@H](CC(C)C)NC(=O)[C@H](CC(C)C)NC(=O)[C@H](Cc1ccc(O)cc1)NC(=O)[C@H](Cc1ccccc1)NC(=O)[C@@H]1CCCN1C(=O)[C@H](CC(C)C)NC(=O)[C@H](CC(=O)O)NC(=O)[C@@H](NC(=O)[C@H](CO)NC(=O)[C@@H](NC(=O)[C@@H]1CCCN1C(=O)[C@@H]1CCCN1C(=O)CNC(=O)[C@@H]1CCC(=O)N1)[C@@H](C)CC)[C@@H](C)CC)[C@@H](C)CC)[C@@H](C)CC)[C@@H](C)O)[C@@H](C)O)C(=O)N[C@@H](CC(C)C)C(=O)N[C@@H](C)C(=O)N[C@@H](CCCNC(=N)N)C(=O)N[C@H](C(N)=O)C(C)C` [compound 147], for which the values for the EC50 at CRF1R (CRF1R EC50) and at CRF2R were 102 nM and 6.75 nM, respectively. Also, the Emax on CRF1R stood at 96%; on CRF2R it was 94%.
In the case of `CC[C@H](C)[C@H](NC(=O)[C@@H](NC(=O)[C@H](CC(=O)O)NC(=O)[C@H](CC(C)C)NC(=O)[C@H](CC(C)C)NC(=O)[C@H](CC(C)C)NC(=O)[C@H](CCCNC(=N)N)NC(=O)[C@H](CC(N)=O)NC(=O)[C@H](CC(N)=O)NC(=O)[C@H](C)NC(=O)[C@H](C)NC(=O)[C@H](CCC(N)=O)NC(=O)[C@H](CCC(N)=O)NC(=O)[C@H](CCCCN)NC(=O)[C@H](CCC(=O)O)NC(=O)[C@H](CCCCN)NC(=O)[C@H](CCC(=O)O)NC(=O)[C@H](CCC(N)=O)NC(=O)[C@H](CCCCN)NC(=O)[C@H](CCC(=O)O)NC(=O)[C@@H](NC(=O)[C@H](CCC(=O)O)NC(=O)[C@@H](NC(=O)[C@H](CCSC)NC(=O)[C@H](CCCCN)NC(=O)[C@H](CCCNC(=N)N)NC(=O)[C@H](CC(C)C)NC(=O)[C@H](CC(C)C)NC(=O)[C@H](Cc1c[nH]cn1)NC(=O)[C@H](C)NC(=O)[C@@H]1CCCN1C(=O)[C@H](CC(C)C)NC(=O)[C@H](CC(=O)O)NC(=O)[C@@H](NC(=O)[C@H](CO)NC(=O)[C@@H](NC(=O)[C@@H]1CCCN1C(=O)[C@@H]1CCCN1C(=O)CNC(=O)[C@@H]1CCC(=O)N1)[C@@H](C)CC)[C@@H](C)CC)[C@@H](C)CC)[C@@H](C)CC)[C@@H](C)O)C(N)=O` [compound 206], the maximum response (Emax) on CRF1R and on CRF2R was 97% throughout.
In the case of `CC[C@H](C)[C@H](NC(=O)[C@H](CCCNC(=N)N)NC(=O)[C@H](C)NC(=O)[C@H](CC(C)C)NC(=O)[C@H](CC(C)C)NC(=O)[C@H](CCCNC(=N)N)NC(=O)[C@H](C)NC(=O)[C@H](CC(N)=O)NC(=O)[C@H](CC(N)=O)NC(=O)[C@H](C)NC(=O)[C@H](C)NC(=O)[C@H](CCC(N)=O)NC(=O)[C@H](CCC(N)=O)NC(=O)[C@H](CCCCN)NC(=O)[C@H](CCC(=O)O)NC(=O)[C@H](CCCCN)NC(=O)[C@H](CCC(=O)O)NC(=O)[C@H](CCC(N)=O)NC(=O)[C@H](CCCCN)NC(=O)[C@H](CCC(=O)O)NC(=O)[C@@H](NC(=O)[C@H](CCC(=O)O)NC(=O)[C@@H](NC(=O)[C@H](CCSC)NC(=O)[C@H](CCCCN)NC(=O)[C@H](CCCNC(=N)N)NC(=O)[C@H](CC(C)C)NC(=O)[C@H](CC(C)C)NC(=O)[C@H](Cc1c[nH]c2ccccc12)NC(=O)[C@@H](NC(=O)[C@@H]1CCCN1C(=O)[C@H](CC(C)C)NC(=O)[C@H](CC(=O)O)NC(=O)[C@@H](NC(=O)[C@H](CO)NC(=O)[C@@H](NC(=O)[C@@H]1CCCN1C(=O)[C@@H]1CCCN1C(=O)CNC(=O)[C@@H]1CCC(=O)N1)[C@@H](C)CC)[C@@H](C)CC)[C@@H](C)O)[C@@H](C)CC)[C@@H](C)CC)C(N)=O` [compound 292], the Emax at CRF1R was determined as 7%; at CRF2R, 86.1%.
Consider `CC[C@H](C)[C@H](NC(=O)[C@H](CCC(=O)O)NC(=O)[C@@H](NC(=O)[C@H](CCSC)NC(=O)[C@H](CCCCN)NC(=O)[C@H](CCCNC(=N)N)NC(=O)[C@H](CC(C)C)NC(=O)[C@H](CC(C)C)NC(=O)[C@H](CCC(N)=O)NC(=O)[C@H](Cc1ccccc1)NC(=O)[C@@H]1CCCN1C(=O)[C@H](CC(C)C)NC(=O)[C@H](CC(=O)O)NC(=O)[C@@H](NC(=O)[C@H](CO)NC(=O)[C@@H](NC(=O)[C@@H]1CCCN1C(=O)[C@@H]1CCCN1C(=O)CNC(=O)[C@@H]1CCC(=O)N1)[C@@H](C)CC)[C@@H](C)CC)[C@@H](C)CC)C(=O)N[C@@H](CCC(=O)O)C(=O)N[C@@H](CCCCN)C(=O)N[C@@H](CCC(N)=O)C(=O)N[C@@H](CCC(=O)O)C(=O)N[C@@H](CCCCN)C(=O)N[C@@H](CCC(=O)O)C(=O)N[C@@H](CCCCN)C(=O)N[C@@H](CCC(N)=O)C(=O)N[C@@H](CCC(N)=O)C(=O)N[C@@H](C)C(=O)N[C@H](C(=O)N[C@H](C(=O)N[C@@H](CC(N)=O)C(=O)N[C@@H](C)C(=O)N[C@@H](CCCNC(=N)N)C(=O)N[C@@H](CC(C)C)C(=O)N[C@@H](CC(C)C)C(=O)N[C@@H](C)C(=O)N[C@H](C(=O)N[C@H](C(N)=O)C(C)C)[C@@H](C)O)[C@@H](C)O)[C@@H](C)O` [compound 21], for which the Emax on CRF1R turned out to be 88%; at CRF2R it was 96%.
The like results for `CC[C@H](C)[C@H](NC(=O)[C@@H](NC(=O)[C@H](C)NC(=O)[C@H](CC(C)C)NC(=O)[C@H](CC(C)C)NC(=O)[C@H](CC(C)C)NC(=O)[C@H](C)NC(=O)[C@H](CC(N)=O)NC(=O)[C@H](CC(N)=O)NC(=O)[C@H](C)NC(=O)[C@H](C)NC(=O)[C@H](CCC(N)=O)NC(=O)[C@H](CCC(N)=O)NC(=O)[C@H](CCCCN)NC(=O)[C@H](CCC(=O)O)NC(=O)[C@H](CCCCN)NC(=O)[C@H](CCC(=O)O)NC(=O)[C@H](CCC(N)=O)NC(=O)[C@H](CCCCN)NC(=O)[C@H](CCC(=O)O)NC(=O)[C@@H](NC(=O)[C@H](CCC(=O)O)NC(=O)[C@@H](NC(=O)[C@H](CCSC)NC(=O)[C@H](CCCCN)NC(=O)[C@H](CCCNC(=N)N)NC(=O)[C@H](CC(C)C)NC(=O)[C@H](CC(C)C)NC(=O)[C@H](Cc1ccc(O)cc1)NC(=O)[C@@H](NC(=O)[C@@H]1CCCN1C(=O)[C@H](CC(C)C)NC(=O)[C@H](CC(=O)O)NC(=O)[C@@H](NC(=O)[C@H](CO)NC(=O)[C@@H](NC(=O)[C@@H]1CCCN1C(=O)[C@@H]1CCCN1C(=O)CNC(=O)[C@@H]1CCC(=O)N1)[C@@H](C)CC)[C@@H](C)CC)[C@@H](C)CC)[C@@H](C)CC)[C@@H](C)CC)[C@@H](C)O)C(N)=O` [compound 237] were, in that order, 18% and 93%.
The like results for `CC[C@H](C)[C@H](NC(=O)[C@@H](NC(=O)[C@H](CC(=O)O)NC(=O)[C@H](CC(C)C)NC(=O)[C@H](CC(C)C)NC(=O)[C@H](CCCNC(=N)N)NC(=O)[C@H](C)NC(=O)[C@H](CC(N)=O)NC(=O)[C@H](CC(N)=O)NC(=O)[C@H](C)NC(=O)[C@H](C)NC(=O)[C@H](CCC(N)=O)NC(=O)[C@H](CCC(N)=O)NC(=O)[C@H](CCCCN)NC(=O)[C@H](CCC(=O)O)NC(=O)[C@H](CCCCN)NC(=O)[C@H](CCC(=O)O)NC(=O)[C@H](CCC(N)=O)NC(=O)[C@H](CCCCN)NC(=O)[C@H](CCC(=O)O)NC(=O)[C@@H](NC(=O)[C@H](CCC(=O)O)NC(=O)[C@@H](NC(=O)[C@@H](NC(=O)[C@H](CCCCN)NC(=O)[C@H](CCCNC(=N)N)NC(=O)[C@H](CC(C)C)NC(=O)[C@H](CC(C)C)NC(=O)[C@H](CCC(N)=O)NC(=O)[C@H](Cc1ccc(O)cc1)NC(=O)[C@@H]1CCCN1C(=O)[C@@H](NC(=O)[C@H](CC(=O)O)NC(=O)[C@@H](NC(=O)[C@H](CO)NC(=O)[C@@H](NC(=O)[C@@H]1CCCN1C(=O)[C@@H]1CCCN1C(=O)CNC(=O)[C@@H]1CCC(=O)N1)[C@@H](C)CC)[C@@H](C)CC)C(C)C)C(C)C)[C@@H](C)CC)[C@@H](C)CC)[C@@H](C)O)C(N)=O` [compound 374] were, in that order, 11% and 91%.
